Patent US10442848B2, “Oxyntomodulin derivatives and pharmaceutical composition for treating obesity comprising the same” (HANMI SCIENCE CO., LTD, priority 2011, dated 2019)

Chains of the proteins cited; added tags and fusions are not shown. Residues count along the entry.
UniProt P43220, 24-463: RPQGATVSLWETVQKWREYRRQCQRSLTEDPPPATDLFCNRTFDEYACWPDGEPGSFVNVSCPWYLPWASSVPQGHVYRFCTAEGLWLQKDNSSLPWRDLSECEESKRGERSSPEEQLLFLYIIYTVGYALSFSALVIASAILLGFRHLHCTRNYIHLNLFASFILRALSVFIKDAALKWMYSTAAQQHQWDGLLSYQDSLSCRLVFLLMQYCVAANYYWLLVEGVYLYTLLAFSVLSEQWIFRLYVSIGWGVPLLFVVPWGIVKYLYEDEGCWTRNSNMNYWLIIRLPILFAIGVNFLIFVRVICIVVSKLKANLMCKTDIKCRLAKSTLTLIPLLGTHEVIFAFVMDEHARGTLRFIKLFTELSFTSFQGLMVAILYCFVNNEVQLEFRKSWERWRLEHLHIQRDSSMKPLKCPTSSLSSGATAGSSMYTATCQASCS
UniProt P47871, 26-477: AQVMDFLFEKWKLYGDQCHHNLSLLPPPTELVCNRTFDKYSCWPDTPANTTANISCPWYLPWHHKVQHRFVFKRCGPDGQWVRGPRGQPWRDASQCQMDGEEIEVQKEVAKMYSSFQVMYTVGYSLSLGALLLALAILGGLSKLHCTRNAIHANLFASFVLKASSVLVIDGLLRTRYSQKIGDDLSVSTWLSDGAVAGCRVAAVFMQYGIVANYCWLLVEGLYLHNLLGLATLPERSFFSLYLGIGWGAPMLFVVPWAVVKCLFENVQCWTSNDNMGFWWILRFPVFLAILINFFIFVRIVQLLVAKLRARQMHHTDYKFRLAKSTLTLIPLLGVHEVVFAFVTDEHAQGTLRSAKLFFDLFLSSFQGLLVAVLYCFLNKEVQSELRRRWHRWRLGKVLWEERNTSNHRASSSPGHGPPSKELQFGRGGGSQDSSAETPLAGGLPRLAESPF

How the values were obtained:
human GLP-1 receptor = molecular target: T1, human GLP-1 receptor (Homo sapiens, UniProt P43220); assay: cAMP response in CHO cell line expressing human GLP-1 receptor; assay type: cell-based
T1 construct: PCR was performed using a region corresponding to ORF (Open Reading Frame) in cDNA; expressed in transfected cells; host or cells: CHO DG44

human glucagon receptor = molecular target: T2, human glucagon receptor (Homo sapiens, UniProt P47871); assay: cAMP response in CHO cell line expressing human glucagon receptor; assay type: cell-based
T2 construct: expressed in transfected cells; host or cells: CHO DG44
Procedure: The PCR product was cloned into the known animal cell expression vector x0GC/dhfr to prepare a recombinant vector x0GC/GCGR.
CHO DG44 cell line cultured in DMEM/F12 (10% FBS) medium was transfected with the recombinant vector x0GC/GCGR using LIPOFECTAMINE®, and cultured in a selection medium containing 1 mg/mL G418 and 10 nM methotraxate.
The cultured cells were washed with KRB buffer and suspended in 40 ml of KRB buffer containing 1 mM IBMX, and left at room temperature for 5 minutes. […] Then, 20 mL of cell lysis buffer was added for cell lysis, and the cell lysates were applied to a cAMP assay kit (Molecular Device, USA) to measure cAMP concentrations. EC50 values were calculated therefrom, and compared to each other.

ob/ob mouse = assay: Changes in food intake in ob/ob mouse; assay type: in vivo; details: ob/ob mice fasted for 16 hours, food intake for 2 hours; 1 mg/kg derivative vs 10 mg/kg oxyntomodulin (FIG. 1)
Procedure: In order to measure in vivo therapeutic activity of oxyntomodulin derivatives, changes in food intake by administration of oxyntomodulin derivatives were examined in ob/ob mouse using native oxyntomodulin as a control.
Specifically, obese diabetic ob/ob mice, commonly used to test the efficacies of therapeutic agents for obesity and diabetes, were fasted for 16 hours, and administered with 1 or 10 mg/kg of oxyntomodulin, or 0.02, 0.1, 1 or 10 mg/kg of the oxyntomodulin derivative of SEQ ID NO. 2. Then, food intake was examined for 2 hours (FIG. 1). FIG. 1 is a graph showing changes in food intake according to administration dose of oxyntomodulin or oxyntomodulin derivative.

| SMILES | EC50 (human GLP-1 receptor) | EC50 (human glucagon receptor) | inhibitory effects on food intake (ob/ob mouse) |
| --- | --- | --- | --- |
| CC[C@H](C)[C@H](NC(=O)[C@H](Cc1ccccc1)NC(=O)[C@H](CC(C)C)NC(=O)[C@H](CCCNC(=N)N)NC(=O)[C@@H](NC(=O)[C@H](C)NC(=O)[C@H](CCC(=O)O)NC(=O)[C@H](CCC(=O)O)NC(=O)[C@H](CCC(=O)O)NC(=O)[C@H](CC(C)C)NC(=O)[C@H](Cc1ccc(O)cc1)NC(=O)[C@H](CCCNC(=N)N)NC(=O)[C@H](CO)NC(=O)[C@H](Cc1ccc(O)cc1)NC(=O)[C@H](CC(=O)O)NC(=O)[C@H](CO)NC(=O)[C@@H](NC(=O)[C@H](Cc1ccccc1)NC(=O)[C@@H](NC(=O)CNC(=O)[C@H](CCC(N)=O)NC(=O)CNC(=O)Cc1c[nH]cn1)[C@@H](C)O)[C@@H](C)O)C(C)C)C(=O)N[C@@H](CCC(=O)O)C(=O)N[C@@H](Cc1c[nH]c2ccccc12)C(=O)N[C@@H](CC(C)C)C(=O)N[C@@H](CCCCN)C(=O)N[C@@H](CC(N)=O)C(=O)NCC(=O)NCC(=O)N1CCC[C@H]1C(=O)N[C@@H](CO)C(=O)N[C@@H](CO)C(=O)NCC(=O)N[C@@H](C)C(=O)N1CCC[C@H]1C(=O)N1CCC[C@H]1C(=O)N1CCC[C@H]1C(=O)N[C@@H](CO)C(=O)O [SEQ ID NO. 4] | 5.5 nM | > 1000 nM |  |
| CC[C@H](C)[C@H](NC(=O)[C@H](Cc1ccccc1)NC(=O)[C@H](CC(C)C)NC(=O)[C@H](CCCNC(=N)N)NC(=O)[C@@H](NC(=O)[C@H](C)NC(=O)[C@H](CCC(=O)O)NC(=O)[C@H](CCC(=O)O)NC(=O)[C@H](CC(=O)O)NC(=O)[C@H](CC(C)C)NC(=O)[C@H](Cc1ccc(O)cc1)NC(=O)[C@H](CCCNC(=N)N)NC(=O)[C@H](CO)NC(=O)[C@H](Cc1ccc(O)cc1)NC(=O)[C@H](CC(=O)O)NC(=O)[C@H](CO)NC(=O)[C@@H](NC(=O)[C@H](Cc1ccccc1)NC(=O)[C@@H](NC(=O)CNC(=O)[C@H](CCC(N)=O)NC(=O)[C@H](CO)NC(=O)Cc1c[nH]cn1)[C@@H](C)O)[C@@H](C)O)C(C)C)C(=O)N[C@@H](CCC(=O)O)C(=O)N[C@@H](Cc1c[nH]c2ccccc12)C(=O)N[C@H](C(=O)N[C@@H](CCCNC(=N)N)C(=O)N[C@@H](CC(N)=O)C(=O)NCC(=O)NCC(=O)N1CCC[C@H]1C(=O)N[C@@H](CO)C(=O)N[C@@H](CO)C(=O)NCC(=O)N[C@@H](C)C(=O)N1CCC[C@H]1C(=O)N1CCC[C@H]1C(=O)N1CCC[C@H]1C(=O)N[C@@H](CO)C(=O)N[C@@H](CCCCN)C(=O)O)[C@@H](C)CC [SEQ ID NO. 18] |  | > 1000 nM |  |
| CC[C@H](C)[C@H](NC(=O)[C@H](Cc1ccccc1)NC(=O)[C@H](CC(C)C)NC(=O)[C@H](CCCNC(=N)N)NC(=O)[C@@H](NC(=O)[C@H](C)NC(=O)[C@H](CCC(=O)O)NC(=O)[C@H](CCC(=O)O)NC(=O)[C@H](CCC(=O)O)NC(=O)[C@H](CCSC)NC(=O)[C@H](CCC(N)=O)NC(=O)[C@H](CCCNC(=N)N)NC(=O)[C@H](CO)NC(=O)[C@H](CC(C)C)NC(=O)[C@H](CC(=O)O)NC(=O)[C@H](CO)NC(=O)[C@@H](NC(=O)[C@H](Cc1ccccc1)NC(=O)[C@@H](NC(=O)CNC(=O)[C@H](CCC(=O)O)NC(=O)CNC(=O)Cc1c[nH]cn1)[C@@H](C)O)[C@@H](C)O)C(C)C)C(=O)N[C@@H](CCC(=O)O)C(=O)N[C@@H](Cc1c[nH]c2ccccc12)C(=O)N[C@@H](C)C(=O)N[C@@H](C)C(=O)N[C@@H](Cc1c[nH]cn1)C(=O)N[C@@H](CO)C(=O)N[C@@H](CCC(N)=O)C(=O)NCC(=O)N[C@H](C(=O)N[C@@H](Cc1ccccc1)C(=O)N[C@H](C(=O)N[C@@H](CO)C(=O)N[C@@H](CC(=O)O)C(=O)N[C@@H](Cc1ccc(O)cc1)C(=O)N[C@@H](CO)C(=O)N[C@@H](CCCCN)C(=O)N[C@@H](Cc1ccc(O)cc1)C(=O)N[C@@H](CC(C)C)C(=O)N[C@@H](CC(=O)O)C(=O)O)[C@@H](C)O)[C@@H](C)O [SEQ ID NO. 6] |  | > 1000 nM |  |
| CC[C@H](C)[C@H](NC(=O)[C@H](CC(N)=O)NC(=O)[C@H](CC(N)=O)NC(=O)[C@H](CCCNC(=N)N)NC(=O)[C@H](CC(N)=O)NC(=O)[C@H](CCCNC(=N)N)NC(=O)[C@H](CCCCN)NC(=O)[C@@H](NC(=O)[C@H](CC(N)=O)NC(=O)[C@H](CCSC)NC(=O)[C@H](CC(C)C)NC(=O)[C@H](Cc1c[nH]c2ccccc12)NC(=O)[C@H](CCC(=O)O)NC(=O)[C@@H](NC(=O)[C@H](Cc1ccccc1)NC(=O)[C@H](CC(C)C)NC(=O)[C@H](CCCNC(=N)N)NC(=O)[C@@H](NC(=O)[C@H](C)NC(=O)[C@H](CCC(=O)O)NC(=O)[C@H](CCC(=O)O)NC(=O)[C@H](CC(=O)O)NC(=O)[C@H](CC(C)C)NC(=O)[C@H](Cc1ccc(O)cc1)NC(=O)[C@H](CCCCN)NC(=O)[C@H](CO)NC(=O)[C@H](Cc1ccc(O)cc1)NC(=O)[C@H](CC(=O)O)NC(=O)[C@H](CO)NC(=O)[C@@H](NC(=O)[C@H](Cc1ccccc1)NC(=O)[C@@H](NC(=O)CNC(=O)[C@H](CCC(N)=O)NC(=O)[C@H](CO)NC(=O)Cc1c[nH]cn1)[C@@H](C)O)[C@@H](C)O)C(C)C)[C@@H](C)CC)[C@@H](C)O)C(=O)N[C@@H](C)C(=O)O [SEQ ID NO. 2] |  |  | more excellent inhibitory effects on food intake than administration of 10 mg/kg of oxyntomodulin |
| CC[C@H](C)[C@H](NC(=O)[C@H](Cc1ccccc1)NC(=O)[C@H](CC(C)C)NC(=O)[C@H](CCCNC(=N)N)NC(=O)[C@@H](NC(=O)[C@H](C)NC(=O)[C@H](CCC(=O)O)NC(=O)[C@H](CCC(=O)O)NC(=O)[C@H](CCC(=O)O)NC(=O)[C@H](CC(C)C)NC(=O)[C@H](CCC(N)=O)NC(=O)[C@H](CCCNC(=N)N)NC(=O)[C@H](CO)NC(=O)[C@H](CC(C)C)NC(=O)[C@H](CC(=O)O)NC(=O)[C@H](CO)NC(=O)[C@@H](NC(=O)[C@H](Cc1ccccc1)NC(=O)[C@@H](NC(=O)CNC(=O)[C@H](CCC(N)=O)NC(=O)[C@H](CO)NC(=O)Cc1c[nH]cn1)[C@@H](C)O)[C@@H](C)O)C(C)C)C(=O)N[C@@H](CCC(=O)O)C(=O)N[C@@H](Cc1c[nH]c2ccccc12)C(=O)N[C@@H](CC(C)C)C(=O)N[C@@H](CCSC)C(=O)N[C@@H](CC(N)=O)C(=O)N[C@@H](CCCCN)C(=O)O [SEQ ID NO. 8] |  | > 1000 nM |  |
